We go through one compound from BindingDB's records for 12672258 (University of Bath, 2003).

By UniProt entry, the sequences of proteins in these tests, tags left out.
UniProt P41143, whole entry, looked up: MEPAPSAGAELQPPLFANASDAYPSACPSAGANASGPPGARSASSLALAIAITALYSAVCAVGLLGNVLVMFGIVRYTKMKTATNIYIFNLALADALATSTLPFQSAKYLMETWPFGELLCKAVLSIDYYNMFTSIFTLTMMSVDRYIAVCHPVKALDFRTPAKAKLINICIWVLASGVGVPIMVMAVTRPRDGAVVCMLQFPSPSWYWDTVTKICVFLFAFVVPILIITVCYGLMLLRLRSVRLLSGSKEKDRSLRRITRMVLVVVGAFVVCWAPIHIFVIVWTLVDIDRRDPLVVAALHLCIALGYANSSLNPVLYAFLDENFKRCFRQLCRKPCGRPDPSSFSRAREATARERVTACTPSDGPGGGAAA
UniProt P35372, whole entry, looked up: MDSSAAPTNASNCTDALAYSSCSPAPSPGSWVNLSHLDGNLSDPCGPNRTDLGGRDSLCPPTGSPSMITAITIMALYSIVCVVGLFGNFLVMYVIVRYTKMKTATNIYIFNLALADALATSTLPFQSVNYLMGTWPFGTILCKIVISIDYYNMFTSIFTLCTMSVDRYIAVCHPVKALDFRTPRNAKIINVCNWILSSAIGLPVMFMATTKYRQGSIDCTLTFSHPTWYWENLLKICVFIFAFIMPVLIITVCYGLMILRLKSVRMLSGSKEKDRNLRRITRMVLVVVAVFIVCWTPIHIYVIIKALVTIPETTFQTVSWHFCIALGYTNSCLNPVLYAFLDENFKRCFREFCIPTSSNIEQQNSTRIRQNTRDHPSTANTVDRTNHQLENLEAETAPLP

In experiment [1] the target is Delta-type opioid receptor (Homo sapiens, UniProt P41143). The experiment in a line: Displacement of [3H]C1-DPDPE from human recombinant Opioid receptor delta 1 on CHO cell membranes. (Loss of bound radioactivity is the signal in a displacement assay; it reports binding, not function.)
Another experiment addresses Mu-type opioid receptor (Homo sapiens, UniProt P35372). The experiment in a line: Stimulation of [35S]GTP-gamma-S, binding to recombinant human Opioid receptor mu 1 expressed in CHO cells.

On to `CN(C(=O)Cc1ccccc1)[C@H]1C[C@@]2(CCCO2)CC[C@@H]1N1CCCC1`, for which the inhibitory constant (Ki) in experiment [1] was > 10 µM. In addition, on Mu-type opioid receptor, the EC50 is > 10 µM.

The Ki is the equilibrium dissociation constant of an inhibitor or competing ligand from its target. In general, EC50 refers to the concentration at which the effect is half-maximal.
